System: NK cells
Test: IFN-gamma secretion of NK cells (Human IFN-y ELISA)
Type: cell-based
Details: IL-2 10 mg/L in typical medium without alloferon, 48 hours
Protocol: IFN-r is an indicator of the activity of NK cells, and it is considered as the secretion amount is higher, the cytotoxicity is higher and the differentiation ability increases.
To confirm this, the isolated NK cells were washed and then treated with 10 mg/L of IL-2 in a typical medium, further treated with alloferons 1 to 4 (0.1 to 100 ng/ml, or 100 mg/L) depending on the test group, and placed in a 24-well plate (1×10^5 cells/well) and reacted in an environment of 5% CO2 and 37° C. for 48 hours. IFN-y secreted from NK cells was measured in the culture medium in which the cells were cultured, using a Human IFN-y ELISA kit (BD Biosciences, San Diego, CA, USA). 100 μl of capture antibody diluted in coating buffer was added to each well of a 96-well plate for ELISA, then sealed and left overnight at 4° C. It was washed three times using wash buffer, and all remaining buffer was removed. 200 μl of assay diluent was added to each well and reacted at room temperature for 1 hour for blocking. It was washed again three times using wash buffer, and all remaining buffer was removed. 100 μl of each prepared IFN-y standard and culture supernatants were added, the plate was sealed, and the reaction was performed at room temperature for 2 hours. […] 50 μl of Stop solution was added to each well, and the absorbance was measured at 450 nm within 30 minutes.

IL-2: recombinant human interleukin 2 (IL-2)
IFN-r, Table 6: 1.02 µg/L
